Source: article PMC12678819, “Targeting bacterial kinases as a strategy to counteract antibiotic resistance” (2025)

By UniProt entry, the sequences of proteins in these tests, tags left out. Where a name states a change or a piece, a line headed by the entry shows the natural chain unless it says otherwise. Residues count along the entry.
UniProt P22830, 55-423 limits assumed: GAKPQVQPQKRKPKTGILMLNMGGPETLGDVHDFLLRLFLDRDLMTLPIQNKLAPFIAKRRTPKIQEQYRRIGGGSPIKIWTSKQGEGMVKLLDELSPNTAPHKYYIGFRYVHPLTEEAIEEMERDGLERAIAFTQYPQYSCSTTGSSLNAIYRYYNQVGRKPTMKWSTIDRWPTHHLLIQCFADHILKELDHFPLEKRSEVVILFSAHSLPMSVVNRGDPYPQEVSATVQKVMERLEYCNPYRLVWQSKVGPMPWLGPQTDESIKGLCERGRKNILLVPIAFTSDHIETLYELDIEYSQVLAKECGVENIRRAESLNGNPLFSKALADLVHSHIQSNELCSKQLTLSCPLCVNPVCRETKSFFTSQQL
UniProt Q6PHR2, 1-279 limits assumed: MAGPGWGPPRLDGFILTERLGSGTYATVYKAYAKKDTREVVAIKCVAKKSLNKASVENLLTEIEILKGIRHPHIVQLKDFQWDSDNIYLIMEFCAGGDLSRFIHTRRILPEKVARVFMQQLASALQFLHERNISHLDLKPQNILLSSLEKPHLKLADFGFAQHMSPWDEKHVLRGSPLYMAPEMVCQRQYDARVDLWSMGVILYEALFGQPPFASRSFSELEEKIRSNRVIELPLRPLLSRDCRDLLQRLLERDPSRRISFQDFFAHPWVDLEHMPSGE
UniProt Q14680, 1-340 limits assumed: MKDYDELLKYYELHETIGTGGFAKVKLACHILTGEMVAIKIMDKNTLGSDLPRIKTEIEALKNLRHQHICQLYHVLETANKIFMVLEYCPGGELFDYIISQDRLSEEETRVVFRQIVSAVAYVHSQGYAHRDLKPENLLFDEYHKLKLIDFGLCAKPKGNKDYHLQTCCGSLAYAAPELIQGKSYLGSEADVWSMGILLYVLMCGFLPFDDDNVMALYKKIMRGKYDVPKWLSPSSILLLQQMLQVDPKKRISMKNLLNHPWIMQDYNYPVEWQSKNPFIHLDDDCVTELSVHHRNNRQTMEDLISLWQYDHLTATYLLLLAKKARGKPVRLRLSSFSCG
UniProt P48730, 9-277 limits assumed: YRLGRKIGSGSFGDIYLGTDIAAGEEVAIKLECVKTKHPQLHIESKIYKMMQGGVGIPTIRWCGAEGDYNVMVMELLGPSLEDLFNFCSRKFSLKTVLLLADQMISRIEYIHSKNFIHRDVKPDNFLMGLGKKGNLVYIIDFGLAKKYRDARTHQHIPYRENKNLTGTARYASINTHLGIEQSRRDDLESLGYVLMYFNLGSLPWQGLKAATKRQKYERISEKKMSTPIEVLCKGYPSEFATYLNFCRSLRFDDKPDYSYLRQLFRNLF
UniProt Q13043, 1-311 limits assumed: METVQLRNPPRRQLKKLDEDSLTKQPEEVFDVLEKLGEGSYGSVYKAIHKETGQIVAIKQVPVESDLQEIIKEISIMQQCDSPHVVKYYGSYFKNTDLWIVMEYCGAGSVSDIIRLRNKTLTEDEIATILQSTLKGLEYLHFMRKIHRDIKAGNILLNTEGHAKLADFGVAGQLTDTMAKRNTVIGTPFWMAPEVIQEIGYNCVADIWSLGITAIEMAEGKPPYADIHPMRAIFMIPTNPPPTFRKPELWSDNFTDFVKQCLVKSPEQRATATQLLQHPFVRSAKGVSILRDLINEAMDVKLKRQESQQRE
UniProt Q00536, 163-478 limits assumed: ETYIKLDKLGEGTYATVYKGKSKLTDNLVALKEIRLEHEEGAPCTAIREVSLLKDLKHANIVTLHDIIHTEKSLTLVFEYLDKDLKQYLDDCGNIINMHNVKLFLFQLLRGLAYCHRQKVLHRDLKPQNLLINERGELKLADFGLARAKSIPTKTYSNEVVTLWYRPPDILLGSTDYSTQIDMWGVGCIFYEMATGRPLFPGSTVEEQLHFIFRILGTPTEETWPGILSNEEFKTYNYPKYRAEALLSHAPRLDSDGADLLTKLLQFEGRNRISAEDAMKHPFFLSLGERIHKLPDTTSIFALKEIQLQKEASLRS
UniProt P34947, whole entry, looked up: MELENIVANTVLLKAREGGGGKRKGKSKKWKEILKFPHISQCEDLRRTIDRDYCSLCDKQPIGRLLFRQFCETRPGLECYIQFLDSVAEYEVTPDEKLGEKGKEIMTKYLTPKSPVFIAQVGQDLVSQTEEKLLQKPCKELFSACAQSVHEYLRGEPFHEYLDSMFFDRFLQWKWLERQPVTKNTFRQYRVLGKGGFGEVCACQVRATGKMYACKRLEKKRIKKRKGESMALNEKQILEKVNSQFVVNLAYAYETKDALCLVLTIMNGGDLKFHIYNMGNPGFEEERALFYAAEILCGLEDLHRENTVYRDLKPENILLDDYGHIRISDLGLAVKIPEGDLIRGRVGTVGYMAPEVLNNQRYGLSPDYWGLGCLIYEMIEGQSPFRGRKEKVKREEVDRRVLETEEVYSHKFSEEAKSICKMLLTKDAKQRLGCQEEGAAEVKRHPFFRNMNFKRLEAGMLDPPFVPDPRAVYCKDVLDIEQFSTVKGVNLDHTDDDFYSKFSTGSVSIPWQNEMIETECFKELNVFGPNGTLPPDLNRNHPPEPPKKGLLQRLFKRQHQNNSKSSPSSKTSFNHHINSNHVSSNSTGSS
UniProt O15264: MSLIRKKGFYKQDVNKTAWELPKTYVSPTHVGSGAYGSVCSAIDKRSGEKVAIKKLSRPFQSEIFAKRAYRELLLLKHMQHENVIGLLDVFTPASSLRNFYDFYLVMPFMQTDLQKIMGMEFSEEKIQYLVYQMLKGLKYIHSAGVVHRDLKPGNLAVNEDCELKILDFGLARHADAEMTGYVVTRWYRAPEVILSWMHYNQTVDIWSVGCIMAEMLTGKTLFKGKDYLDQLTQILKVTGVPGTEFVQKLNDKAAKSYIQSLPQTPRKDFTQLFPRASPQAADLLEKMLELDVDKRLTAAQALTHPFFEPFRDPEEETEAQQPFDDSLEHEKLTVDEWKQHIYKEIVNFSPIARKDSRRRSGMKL
UniProt Q13554, 14-272 limits assumed: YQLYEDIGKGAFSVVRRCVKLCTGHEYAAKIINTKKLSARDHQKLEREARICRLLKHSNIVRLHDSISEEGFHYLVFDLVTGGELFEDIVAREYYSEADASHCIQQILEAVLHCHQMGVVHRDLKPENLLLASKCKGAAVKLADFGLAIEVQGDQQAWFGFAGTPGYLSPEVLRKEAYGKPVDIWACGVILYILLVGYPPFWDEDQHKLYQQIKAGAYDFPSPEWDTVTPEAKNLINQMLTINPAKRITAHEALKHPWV
UniProt P51955, 1-271 limits assumed: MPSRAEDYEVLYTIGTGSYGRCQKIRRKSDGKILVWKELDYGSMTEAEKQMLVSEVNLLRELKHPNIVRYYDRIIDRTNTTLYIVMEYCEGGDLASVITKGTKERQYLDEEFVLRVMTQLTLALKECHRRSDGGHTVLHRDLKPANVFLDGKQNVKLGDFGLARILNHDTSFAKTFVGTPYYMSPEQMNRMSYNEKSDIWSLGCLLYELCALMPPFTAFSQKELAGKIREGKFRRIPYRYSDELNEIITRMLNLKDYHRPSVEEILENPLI
UniProt Q13873, 203-504 limits assumed: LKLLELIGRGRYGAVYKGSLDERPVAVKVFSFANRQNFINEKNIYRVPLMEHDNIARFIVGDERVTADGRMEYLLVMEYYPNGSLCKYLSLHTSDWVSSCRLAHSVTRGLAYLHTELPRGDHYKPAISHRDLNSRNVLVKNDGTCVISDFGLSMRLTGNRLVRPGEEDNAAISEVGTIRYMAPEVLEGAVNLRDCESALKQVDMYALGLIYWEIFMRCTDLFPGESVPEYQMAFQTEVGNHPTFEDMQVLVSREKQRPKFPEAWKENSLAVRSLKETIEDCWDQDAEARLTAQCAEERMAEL
UniProt P07332, 561-822 limits assumed: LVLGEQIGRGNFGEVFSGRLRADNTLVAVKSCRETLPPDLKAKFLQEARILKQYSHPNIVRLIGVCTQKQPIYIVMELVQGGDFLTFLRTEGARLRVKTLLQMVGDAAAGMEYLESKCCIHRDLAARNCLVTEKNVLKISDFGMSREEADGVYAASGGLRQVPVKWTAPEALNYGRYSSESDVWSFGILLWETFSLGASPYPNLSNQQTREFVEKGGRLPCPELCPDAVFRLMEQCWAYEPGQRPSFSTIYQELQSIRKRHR
UniProt Q15375, 590-899 limits assumed: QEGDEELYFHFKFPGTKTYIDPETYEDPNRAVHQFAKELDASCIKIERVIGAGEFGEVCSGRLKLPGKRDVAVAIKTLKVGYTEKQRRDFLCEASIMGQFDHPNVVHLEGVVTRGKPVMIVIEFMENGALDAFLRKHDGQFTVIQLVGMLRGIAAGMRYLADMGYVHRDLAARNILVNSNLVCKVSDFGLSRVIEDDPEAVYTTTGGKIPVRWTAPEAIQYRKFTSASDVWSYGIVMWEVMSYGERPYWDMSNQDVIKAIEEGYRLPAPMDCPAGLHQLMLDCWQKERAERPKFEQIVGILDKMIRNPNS
UniProt P49759, 161-477 limits assumed: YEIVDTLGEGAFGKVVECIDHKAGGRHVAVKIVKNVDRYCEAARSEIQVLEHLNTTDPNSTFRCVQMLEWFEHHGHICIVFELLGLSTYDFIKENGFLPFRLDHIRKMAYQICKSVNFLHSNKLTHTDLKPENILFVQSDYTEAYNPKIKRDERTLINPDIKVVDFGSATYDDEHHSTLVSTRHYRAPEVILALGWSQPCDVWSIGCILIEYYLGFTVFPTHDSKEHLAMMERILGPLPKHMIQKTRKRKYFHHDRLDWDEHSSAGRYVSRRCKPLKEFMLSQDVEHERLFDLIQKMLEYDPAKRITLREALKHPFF
UniProt Q16539, whole entry, looked up: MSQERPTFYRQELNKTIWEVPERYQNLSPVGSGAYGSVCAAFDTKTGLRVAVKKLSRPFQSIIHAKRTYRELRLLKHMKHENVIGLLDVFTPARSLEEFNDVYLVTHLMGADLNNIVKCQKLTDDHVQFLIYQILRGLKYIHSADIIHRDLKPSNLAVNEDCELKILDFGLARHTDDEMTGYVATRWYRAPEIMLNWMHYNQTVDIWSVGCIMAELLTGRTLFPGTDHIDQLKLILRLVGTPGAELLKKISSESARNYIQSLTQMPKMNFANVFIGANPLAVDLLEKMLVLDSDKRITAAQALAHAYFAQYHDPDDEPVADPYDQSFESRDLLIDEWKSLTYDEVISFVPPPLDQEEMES
UniProt Q96NX5, 23-277 limits assumed: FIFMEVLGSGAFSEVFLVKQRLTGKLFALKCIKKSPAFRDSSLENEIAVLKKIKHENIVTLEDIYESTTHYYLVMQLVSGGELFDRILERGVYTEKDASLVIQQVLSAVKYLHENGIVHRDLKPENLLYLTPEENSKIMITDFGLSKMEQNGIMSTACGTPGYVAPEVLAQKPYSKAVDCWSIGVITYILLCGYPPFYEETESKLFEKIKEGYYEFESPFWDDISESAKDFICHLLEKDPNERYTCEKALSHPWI
UniProt Q09013: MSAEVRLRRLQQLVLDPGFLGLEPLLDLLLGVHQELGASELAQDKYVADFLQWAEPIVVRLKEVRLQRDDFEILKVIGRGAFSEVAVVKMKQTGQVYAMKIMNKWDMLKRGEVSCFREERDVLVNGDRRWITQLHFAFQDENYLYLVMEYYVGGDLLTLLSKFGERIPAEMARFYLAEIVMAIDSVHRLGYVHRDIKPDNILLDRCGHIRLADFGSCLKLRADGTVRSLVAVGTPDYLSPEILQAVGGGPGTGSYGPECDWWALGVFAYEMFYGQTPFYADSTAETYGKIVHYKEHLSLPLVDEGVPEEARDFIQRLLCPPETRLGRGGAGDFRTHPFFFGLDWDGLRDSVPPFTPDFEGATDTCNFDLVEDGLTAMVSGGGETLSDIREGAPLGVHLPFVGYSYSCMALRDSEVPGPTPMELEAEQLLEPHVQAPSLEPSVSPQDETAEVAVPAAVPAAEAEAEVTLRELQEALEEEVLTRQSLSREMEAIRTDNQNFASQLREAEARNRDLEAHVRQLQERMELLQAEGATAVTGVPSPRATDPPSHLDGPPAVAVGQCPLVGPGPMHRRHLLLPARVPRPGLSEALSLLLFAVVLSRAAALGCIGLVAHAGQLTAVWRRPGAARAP
UniProt P49674, 1-294 limits assumed: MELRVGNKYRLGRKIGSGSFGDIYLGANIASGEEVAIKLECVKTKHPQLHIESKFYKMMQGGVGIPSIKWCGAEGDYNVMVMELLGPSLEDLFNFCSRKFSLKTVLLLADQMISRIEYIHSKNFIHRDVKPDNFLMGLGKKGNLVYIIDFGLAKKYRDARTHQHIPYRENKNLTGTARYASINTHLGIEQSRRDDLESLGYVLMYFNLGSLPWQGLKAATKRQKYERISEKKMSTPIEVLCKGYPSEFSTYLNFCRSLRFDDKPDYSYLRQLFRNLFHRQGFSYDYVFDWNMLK
UniProt Q9Y243, 148-479 limits assumed: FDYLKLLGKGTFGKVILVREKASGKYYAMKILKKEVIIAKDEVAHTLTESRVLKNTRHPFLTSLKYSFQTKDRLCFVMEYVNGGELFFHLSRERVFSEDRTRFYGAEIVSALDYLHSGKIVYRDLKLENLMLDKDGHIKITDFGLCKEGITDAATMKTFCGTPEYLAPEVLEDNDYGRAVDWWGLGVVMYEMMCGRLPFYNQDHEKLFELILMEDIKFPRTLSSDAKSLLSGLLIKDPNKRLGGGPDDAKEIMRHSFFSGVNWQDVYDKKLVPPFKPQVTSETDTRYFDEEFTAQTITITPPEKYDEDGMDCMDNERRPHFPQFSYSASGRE

Legend:
Experiment in all cases: DSF kinase panel
Settings in all cases: 10 μM
FECH = FECH (Homo sapiens, UniProt P22830)
ULK3 = ULK3 (Homo sapiens, UniProt Q6PHR2)
MELK = MELK (Homo sapiens, UniProt Q14680)
FLT1 = FLT1 (Homo sapiens, UniProt P17948)
CK1d = CK1d (Homo sapiens, UniProt P48730)
MST1 = MST1 (Homo sapiens, UniProt Q13043)
PCTAIRE1 = PCTAIRE1 (Homo sapiens, UniProt Q00536)
JNK1 = JNK1 (Homo sapiens, UniProt P45983)
GPRK5 = GPRK5 (Homo sapiens, UniProt P34947)
DYRK1A = DYRK1A (Homo sapiens, UniProt Q13627)
MARK4 = MARK4 (Homo sapiens, UniProt Q96L34)
p38d = p38d (Homo sapiens, UniProt O15264)
STLK3 = STLK3 (Homo sapiens, UniProt Q9UEW8)
CAMK2B = CAMK2B (Homo sapiens, UniProt Q13554)
AurA = AurA (Homo sapiens, UniProt O14965)
BRPF1 = BRPF1 (Homo sapiens, UniProt P55201)
TTK = TTK (Homo sapiens, UniProt P33981)
NEK2 = NEK2 (Homo sapiens, UniProt P51955)
LOK = LOK (Homo sapiens, UniProt O94804)
DAPK1 = DAPK1 (Homo sapiens, UniProt P53355)
BMPR2 = BMPR2 (Homo sapiens, UniProt Q13873)
MER = MER (Homo sapiens, UniProt Q12866)
FES = FES (Homo sapiens, UniProt P07332)
EPHA7 = EPHA7 (Homo sapiens, UniProt Q15375)
OSR1 = OSR1 (Homo sapiens, UniProt O95747)
CLK1 = CLK1 (Homo sapiens, UniProt P49759)
SRC = SRC (Homo sapiens, UniProt P12931)
ULK1 = ULK1 (Homo sapiens, UniProt O75385)
SRPK1 = SRPK1 (Homo sapiens, UniProt Q96SB4)
MSK1_b = MSK1_b (Homo sapiens, UniProt O75582)
p38a = p38a (Homo sapiens, UniProt Q16539)
NDR2 = NDR2 (Homo sapiens, UniProt Q9Y2H1)
CDK2 = CDK2 (Homo sapiens, UniProt P24941)
CAMK1G = CAMK1G (Homo sapiens, UniProt Q96NX5)
DMPK1 = DMPK1 (Homo sapiens, UniProt Q09013)
NEK1 = NEK1 (Homo sapiens, UniProt Q96PY6)
CK2a1 = CK2a1 (Homo sapiens, UniProt P68400)
CSNK1E = CSNK1E (Homo sapiens, UniProt P49674)
PAK4 = PAK4 (Homo sapiens, UniProt O96013)
DAPK3 = DAPK3 (Homo sapiens, UniProt O43293)
ATK3 = ATK3 (Homo sapiens, UniProt Q9Y243)
EphA2 = EphA2 (Homo sapiens, UniProt P29317)

SMILES: C[C@H](O)Cn1cc(-c2c(Cl)cnc3[nH]ccc23)nn1
- ΔTm FECH (FECH): -0.7 °C
- ΔTm ULK3 (ULK3): 6.3 °C
- ΔTm MELK (MELK): 3.6 °C
- ΔTm FLT1 (FLT1): 3.8 °C
- ΔTm CK1d (CK1d): 3.9 °C
- ΔTm MST1 (MST1): 2.7 °C
- ΔTm PCTAIRE1 (PCTAIRE1): 0.1 °C
- ΔTm JNK1 (JNK1): 1.8 °C
- ΔTm GPRK5 (GPRK5): 1.1 °C
- ΔTm DYRK1A (DYRK1A): 1.4 °C
- ΔTm MARK4 (MARK4): 2.0 °C
- ΔTm p38d (p38d): 0.5 °C
- ΔTm STLK3 (STLK3): 1.3 °C
- ΔTm CAMK2B (CAMK2B): 0.7 °C
- ΔTm AurA (AurA): 7.0 °C
- ΔTm BRPF1 (BRPF1): -0.1 °C
- ΔTm TTK (TTK): 1.9 °C
- ΔTm NEK2 (NEK2): -0.1 °C
- ΔTm LOK (LOK): -1.1 °C
- ΔTm DAPK1 (DAPK1): 2.4 °C
- ΔTm BMPR2 (BMPR2): 5.3 °C
- ΔTm MER (MER): 0.4 °C
- ΔTm FES (FES): 0.9 °C
- ΔTm EPHA7 (EPHA7): 1.2 °C
- ΔTm OSR1 (OSR1): 0.5 °C
- ΔTm CLK1 (CLK1): 4.1 °C
- ΔTm SRC (SRC): 0.2 °C
- ΔTm ULK1 (ULK1): 2.8 °C
- ΔTm SRPK1 (SRPK1): 0.0 °C
- ΔTm MSK1_b (MSK1_b): 7.1 °C
- ΔTm p38a (p38a): -0.6 °C
- ΔTm NDR2 (NDR2): -0.8 °C
- ΔTm CDK2 (CDK2): 1.5 °C
- ΔTm CAMK1G (CAMK1G): 1.8 °C
- ΔTm DMPK1 (DMPK1): 1.6 °C
- ΔTm NEK1 (NEK1): 1.1 °C
- ΔTm CK2a1 (CK2a1): 1.0 °C
- ΔTm CSNK1E (CSNK1E): 2.8 °C
- ΔTm PAK4 (PAK4): 2.5 °C
- ΔTm DAPK3 (DAPK3): 4.6 °C
- ΔTm ATK3 (ATK3): 0.3 °C
- ΔTm EphA2 (EphA2): -0.4 °C

SMILES: C[C@@H](O)Cn1cc(-c2c(Cl)cnc3[nH]ccc23)nn1
- ΔTm FECH (FECH): -1.8 °C
- ΔTm ULK3 (ULK3): 6.3 °C
- ΔTm MELK (MELK): 3.4 °C
- ΔTm FLT1 (FLT1): 3.7 °C
- ΔTm CK1d (CK1d): 4.7 °C
- ΔTm MST1 (MST1): 2.0 °C
- ΔTm PCTAIRE1 (PCTAIRE1): 0.1 °C
- ΔTm JNK1 (JNK1): 1.8 °C
- ΔTm GPRK5 (GPRK5): 0.9 °C
- ΔTm DYRK1A (DYRK1A): 1.2 °C
- ΔTm MARK4 (MARK4): 2.0 °C
- ΔTm p38d (p38d): 0.6 °C
- ΔTm STLK3 (STLK3): 0.9 °C
- ΔTm CAMK2B (CAMK2B): 0.0 °C
- ΔTm AurA (AurA): 7.0 °C
- ΔTm BRPF1 (BRPF1): -1.2 °C
- ΔTm TTK (TTK): 1.7 °C
- ΔTm NEK2 (NEK2): -1.8 °C
- ΔTm LOK (LOK): -1.6 °C
- ΔTm DAPK1 (DAPK1): 2.5 °C
- ΔTm BMPR2 (BMPR2): 5.4 °C
- ΔTm MER (MER): 0.0 °C
- ΔTm FES (FES): 0.6 °C
- ΔTm EPHA7 (EPHA7): 0.9 °C
- ΔTm OSR1 (OSR1): 0.4 °C
- ΔTm CLK1 (CLK1): 4.5 °C
- ΔTm SRC (SRC): -0.1 °C
- ΔTm ULK1 (ULK1): 2.8 °C
- ΔTm SRPK1 (SRPK1): -0.1 °C
- ΔTm MSK1_b (MSK1_b): 7.2 °C
- ΔTm p38a (p38a): -0.6 °C
- ΔTm NDR2 (NDR2): -1.0 °C
- ΔTm CDK2 (CDK2): 1.3 °C
- ΔTm CAMK1G (CAMK1G): 1.5 °C
- ΔTm DMPK1 (DMPK1): 1.6 °C
- ΔTm NEK1 (NEK1): 0.3 °C
- ΔTm CK2a1 (CK2a1): 1.3 °C
- ΔTm CSNK1E (CSNK1E): 3.6 °C
- ΔTm PAK4 (PAK4): 2.7 °C
- ΔTm DAPK3 (DAPK3): 5.5 °C
- ΔTm ATK3 (ATK3): 0.2 °C
- ΔTm EphA2 (EphA2): -0.4 °C

SMILES: Clc1cnc2[nH]ccc2c1-c1ccn[nH]1
- ΔTm FECH (FECH): -0.6 °C
- ΔTm ULK3 (ULK3): 4.4 °C
- ΔTm MELK (MELK): 2.5 °C
- ΔTm FLT1 (FLT1): 3.0 °C
- ΔTm CK1d (CK1d): 1.8 °C
- ΔTm MST1 (MST1): 1.1 °C
- ΔTm PCTAIRE1 (PCTAIRE1): -0.2 °C
- ΔTm JNK1 (JNK1): 0.9 °C
- ΔTm GPRK5 (GPRK5): 2.3 °C
- ΔTm DYRK1A (DYRK1A): 1.4 °C
- ΔTm MARK4 (MARK4): 1.1 °C
- ΔTm p38d (p38d): 0.3 °C
- ΔTm STLK3 (STLK3): 1.5 °C
- ΔTm CAMK2B (CAMK2B): -0.5 °C
- ΔTm AurA (AurA): 6.9 °C
- ΔTm BRPF1 (BRPF1): -0.8 °C
- ΔTm TTK (TTK): 0.8 °C
- ΔTm NEK2 (NEK2): -1.5 °C
- ΔTm LOK (LOK): -1.6 °C
- ΔTm DAPK1 (DAPK1): 1.1 °C
- ΔTm BMPR2 (BMPR2): 4.0 °C
- ΔTm MER (MER): -0.6 °C
- ΔTm FES (FES): 1.5 °C
- ΔTm EPHA7 (EPHA7): 0.4 °C
- ΔTm OSR1 (OSR1): -0.7 °C
- ΔTm CLK1 (CLK1): 2.4 °C
- ΔTm SRC (SRC): -0.2 °C
- ΔTm ULK1 (ULK1): 2.2 °C
- ΔTm SRPK1 (SRPK1): -0.4 °C
- ΔTm MSK1_b (MSK1_b): 4.1 °C
- ΔTm p38a (p38a): -0.7 °C
- ΔTm NDR2 (NDR2): -1.1 °C
- ΔTm CDK2 (CDK2): -0.2 °C
- ΔTm CAMK1G (CAMK1G): 1.0 °C
- ΔTm DMPK1 (DMPK1): 0.9 °C
- ΔTm NEK1 (NEK1): 0.3 °C
- ΔTm CK2a1 (CK2a1): 0.7 °C
- ΔTm CSNK1E (CSNK1E): 1.0 °C
- ΔTm PAK4 (PAK4): 3.6 °C
- ΔTm DAPK3 (DAPK3): 1.6 °C
- ΔTm ATK3 (ATK3): 0.1 °C
- ΔTm EphA2 (EphA2): -0.3 °C
